Measured values published in ChEMBL document CHEMBL1145259, “Arylacetamide kappa opioid receptor agonists with reduced cytochrome P450 2D6 inhibitory activity” (Bioorg Med Chem Lett, 2005).

Protein sequences, listed by entry. Tags and fused reporters are not part of them.
UniProt P35372, whole entry, looked up: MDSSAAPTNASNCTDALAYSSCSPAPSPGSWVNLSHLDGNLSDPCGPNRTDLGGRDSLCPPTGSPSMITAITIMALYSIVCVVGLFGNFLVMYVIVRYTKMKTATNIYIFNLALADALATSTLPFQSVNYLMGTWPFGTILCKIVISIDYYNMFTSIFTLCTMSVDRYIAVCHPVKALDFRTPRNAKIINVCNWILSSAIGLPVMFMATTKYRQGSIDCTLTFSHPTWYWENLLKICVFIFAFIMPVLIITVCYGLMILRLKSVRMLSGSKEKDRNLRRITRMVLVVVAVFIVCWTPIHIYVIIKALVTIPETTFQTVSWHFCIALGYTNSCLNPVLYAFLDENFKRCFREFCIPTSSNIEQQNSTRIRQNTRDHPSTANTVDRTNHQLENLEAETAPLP
UniProt P41143, whole entry, looked up: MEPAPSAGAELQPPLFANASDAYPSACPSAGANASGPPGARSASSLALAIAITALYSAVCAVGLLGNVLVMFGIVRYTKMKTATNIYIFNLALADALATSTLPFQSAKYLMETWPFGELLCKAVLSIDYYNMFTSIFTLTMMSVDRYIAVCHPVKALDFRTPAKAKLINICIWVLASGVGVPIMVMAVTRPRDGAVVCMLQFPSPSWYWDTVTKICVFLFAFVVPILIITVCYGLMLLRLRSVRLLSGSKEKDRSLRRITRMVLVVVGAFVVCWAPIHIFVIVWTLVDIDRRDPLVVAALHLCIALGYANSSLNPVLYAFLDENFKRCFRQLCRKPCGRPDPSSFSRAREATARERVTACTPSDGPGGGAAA

Assays:
[1] = target: Mu-type opioid receptor (Homo sapiens, UniProt P35372); experiment: Percent inhibition against human Opioid receptor mu 1 using [3H]diprenorphine as radio ligand; set-up: concentration or dose not given beside the values; settings: concentration not given here
[2] = target: Delta-type opioid receptor (Homo sapiens, UniProt P41143); experiment: Percent inhibition against human Opioid receptor delta 1 using [3H]diprenorphine as radio ligand; settings: concentration not given here

## CN(C(=O)Cc1ccccc1)[C@H](CN1CCCC1)c1ccccc1
[1]
  inhibition: 25%
[2]
  inhibition: 31%
